Reference: PubChem BioAssay AID1007 (NMMLSC, 2008)
This is a selection; strong and weak results do not stand in their true shares. Some results for these compounds are left out of this collection, so the calls shown say nothing about other tests. The source made the active and inactive calls. Rule as the data show it: active = inhibition above about 40%.

Amino acid sequences for entries named in this document (tags omitted).
UniProt Q07817, whole entry: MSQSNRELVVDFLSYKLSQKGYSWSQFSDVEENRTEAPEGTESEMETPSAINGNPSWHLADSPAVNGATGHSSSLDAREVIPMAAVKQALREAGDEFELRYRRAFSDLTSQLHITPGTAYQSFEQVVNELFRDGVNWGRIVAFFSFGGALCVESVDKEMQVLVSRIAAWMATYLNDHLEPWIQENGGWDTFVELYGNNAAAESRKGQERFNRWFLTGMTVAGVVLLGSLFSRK

target: Bcl-2-like protein 1 (Homo sapiens) (UniProt Q07817); experiment: Bcl-XL/Bim peptide interaction blockers – biochemical, multiplexed, bead flow cytometry, human Bcl-XL, primary screen (AID 1007); conditions: Bim peptide-Bcl-XL binding, fluorescence, at 10 µM, active compounds read high

| Structure (SMILES) | inhibition |
| --- | --- |
| O=C(OC1CN2CCC1CC2)C(CO)(c1ccccc1)c1ccccc1 (centres undefined) | inactive: -3% |
| CN(C)c1cccc(C(=O)NCC2(N(C)C)CCCCC2)c1 | inactive: -9% |
| COc1cccc(C(=O)NCC2(N3CCCCC3)CCCCC2)c1 | inactive: -3% |
| Cc1ccccc1C(=O)NCC1(N2CCCCC2)CCCCC1 | inactive: -2% |
| CN(C)C1CCCC1OC(=O)C(O)(c1ccccc1)c1ccccc1 (centres undefined) | inactive: -7% |
| CCN1CCCC(OC(=O)C2(O)c3ccccc3C=Cc3ccccc32)C1 (centres undefined) | inactive: -7% |
| C=CCN1CCN(CCOC(=O)C(O)(c2ccccc2)c2ccccc2)CC1 | inactive: 0% |
| O=C(NCC1(N2CCCCC2)CCCCC1)c1cc([N+](=O)[O-])ccc1Cl | inactive: 3% |
| CC(C)N1C(=O)CC2(CCN(CCOC(=O)C(O)(c3ccccc3)c3ccccc3)CC2)C1=O | inactive: -2% |
